{"sequences": {"note": "Sequences of proteins named here, by UniProt entry; tags and fusion partners are left off. A line that says so, or that is headed by a name, gives the form on record, which may keep a tag or linker. Residues count along the entry.", "UniProt Q07343, other isoform, or with tags, fused parts or gaps": "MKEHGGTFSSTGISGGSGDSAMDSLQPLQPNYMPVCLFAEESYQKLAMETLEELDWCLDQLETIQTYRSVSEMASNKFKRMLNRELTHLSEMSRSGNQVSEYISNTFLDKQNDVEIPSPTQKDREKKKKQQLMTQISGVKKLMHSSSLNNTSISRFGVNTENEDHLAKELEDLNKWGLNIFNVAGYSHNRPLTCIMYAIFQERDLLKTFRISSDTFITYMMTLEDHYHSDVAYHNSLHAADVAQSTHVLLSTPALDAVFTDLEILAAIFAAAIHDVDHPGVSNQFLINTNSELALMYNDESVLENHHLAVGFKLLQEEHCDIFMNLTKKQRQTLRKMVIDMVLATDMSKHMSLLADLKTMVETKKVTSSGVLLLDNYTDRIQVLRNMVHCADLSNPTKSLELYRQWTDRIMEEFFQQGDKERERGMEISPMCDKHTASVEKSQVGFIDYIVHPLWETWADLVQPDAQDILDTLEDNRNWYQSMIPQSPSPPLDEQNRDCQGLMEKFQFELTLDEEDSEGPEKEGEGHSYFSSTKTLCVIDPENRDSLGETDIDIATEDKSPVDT", "UniProt Q08499, 303-809, stated change not applied": "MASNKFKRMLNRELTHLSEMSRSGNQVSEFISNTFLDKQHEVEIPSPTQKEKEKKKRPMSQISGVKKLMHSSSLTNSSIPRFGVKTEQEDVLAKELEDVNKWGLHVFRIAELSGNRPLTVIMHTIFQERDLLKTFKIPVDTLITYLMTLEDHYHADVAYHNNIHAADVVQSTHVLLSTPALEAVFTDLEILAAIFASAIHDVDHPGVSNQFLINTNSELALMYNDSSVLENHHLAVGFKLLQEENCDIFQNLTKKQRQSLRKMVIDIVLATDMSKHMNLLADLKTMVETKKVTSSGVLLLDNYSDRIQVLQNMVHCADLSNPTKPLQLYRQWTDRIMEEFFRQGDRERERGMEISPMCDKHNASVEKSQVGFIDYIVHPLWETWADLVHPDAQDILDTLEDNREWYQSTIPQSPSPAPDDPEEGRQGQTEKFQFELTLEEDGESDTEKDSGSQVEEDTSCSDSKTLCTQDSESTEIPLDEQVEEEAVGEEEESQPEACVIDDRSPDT"}, "source": "patent US20250263426A1", "about": "“PDE4B INHIBITOR AND USE THEREOF” (Xizang Haisco Pharmaceutical Co., Ltd., priority 2022, published 2025)", "key": {"PDE4B2": {"biological_target": "PDE4B2 (Homo sapiens (Human), UniProt Q07343)", "assay": "Effect of compounds on PDE4B2 activity (fluorescence polarization kit)", "conditions": "read-out: PDE4B2 IC50"}, "PDE4D2": {"biological_target": "PDE4D2 (Homo sapiens (Human), UniProt Q08499)", "assay": "Effect of compounds on PDE4D2 activity (fluorescence polarization kit)", "type": "biochemical", "experimental": "FP was usually represented by mP value.\n[formula] • I∥ (S520): fluorescence intensity in parallel direction • I⊥ (P520): fluorescence intensity in perpendicular direction • G: G factor=1\n[formula] • mP(sample): mP of the test compound in a reaction well • mP(negative control): mP in the negative control well • mP(positive control): mP in the positive control well\nAccording to the calculated inhibition rate at each concentration, the IC50 value of each compound was calculated by GraphPad Prism 8 software."}}}
{"smiles": "NC(=O)OCC1(Nc2nc(N3CC=C(c4ncc(C5CC5)cn4)CC3)nc3c2[S@+]([O-])CC3)CCC1", "note": "[Compound 47]", "values": [{"measurement": "IC50", "setting": "PDE4B2", "result": "< 10", "unit": "nM"}]}
{"smiles": "CC#Cc1cnc(C2=CCN(c3nc4c(c(NC(C)(C)COC(N)=O)n3)[S+]([O-])CC4)CC2)nc1", "note": "(single isomer, unassigned) [Compound 110-1]", "values": [{"measurement": "IC50", "setting": "PDE4D2", "result": "< 10", "unit": "nM"}, {"measurement": "IC50", "setting": "PDE4B2", "result": "< 10", "unit": "nM"}]}
{"smiles": "CC#Cc1cnc(C2=CCN(c3nc4c(c(NC5(COC(F)F)CCC5)n3)[S@@+]([O-])CC4)CC2)nc1", "note": "[Compound 92-2]", "values": [{"measurement": "IC50", "setting": "PDE4B2", "result": "< 10", "unit": "nM"}]}
{"smiles": "CC#Cc1cnc(C2=CCN(c3nc4c(c(NC(C)(C)COC(N)=O)n3)[S+]([O-])CC4)CC2)nc1", "note": "(single isomer, unassigned) [Compound 110-2]", "values": [{"measurement": "IC50", "setting": "PDE4D2", "result": "10 to 50", "unit": "nM"}, {"measurement": "IC50", "setting": "PDE4B2", "result": "< 10", "unit": "nM"}]}
{"smiles": "CC(C)(COC(N)=O)Nc1nc(N2CCC=C(c3ncc(Cl)cn3)CC2)nc2c1[S@@+]([O-])CC2", "note": "[Compound 102-2]", "values": [{"measurement": "IC50", "setting": "PDE4D2", "result": "< 10", "unit": "nM"}, {"measurement": "IC50", "setting": "PDE4B2", "result": "< 10", "unit": "nM"}]}
{"smiles": "CC(C)(COC(N)=O)Nc1nc(N2CCC=C(c3ncc(Cl)cn3)CC2)nc2c1[S@+]([O-])CC2", "note": "[Compound 102-1]", "values": [{"measurement": "IC50", "setting": "PDE4D2", "result": "50 to 100", "unit": "nM"}, {"measurement": "IC50", "setting": "PDE4B2", "result": "10 to 50", "unit": "nM"}]}
{"smiles": "CC#Cc1cnc(C2=CCN(c3nc4c(c(NC5(COC(F)F)CCC5)n3)[S@+]([O-])CC4)CC2)nc1", "note": "[Compound 92-1]", "values": [{"measurement": "IC50", "setting": "PDE4B2", "result": "< 10", "unit": "nM"}]}
